## AlphaSeq binding of Ab-14 light chain variants to a spike HR2 peptide

The target is the same throughout: PDVDLGDISGINAS, from the HR2 region of SARS-CoV-2 spike.

Parent scFv Ab-14: VH joined to VL by a 15-residue (Gly4Ser)3 linker. Changes lie in the light chain CDRs alone.
VH: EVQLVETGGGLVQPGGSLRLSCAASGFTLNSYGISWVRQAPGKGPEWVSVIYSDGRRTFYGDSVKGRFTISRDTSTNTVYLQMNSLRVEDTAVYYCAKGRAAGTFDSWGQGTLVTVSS
VL: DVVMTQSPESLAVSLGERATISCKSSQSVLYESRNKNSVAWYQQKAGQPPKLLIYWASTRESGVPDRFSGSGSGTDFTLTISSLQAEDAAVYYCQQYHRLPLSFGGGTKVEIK

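The parent was found by panning a naive human phage display library on the peptide. Variants in AAYL50 differ from the parent at up to three CDR positions; double and triple changes were sampled at random. In AlphaSeq, yeast of one mating type display the scFv and yeast of the other type display the target. The frequency of each diploid, read from paired DNA barcodes, reflects how well the two displayed proteins bind. The ratio of observed to expected reads was calibrated, replicate by replicate, on BCL2-family standards whose Kd was known from biolayer interferometry. Each pool was mated in three replicate cultures.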

The whole VL of each variant is written out.
Affinities are written as log10 Kd with Kd in nM; a lower number is a better binder.
A mean of the replicates is given; it leaves out those without a signal.
Where no diploid with the target was found in any replicate, the entry reads "not detected": below detection, most likely a poor binder, though not proof of it.

VL,"mean, log10 nM",seen in,signal with controls
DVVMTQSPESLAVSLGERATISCNSSQSVLYESRNYNSVAWYQQKAGQPPKLLIYWASTRESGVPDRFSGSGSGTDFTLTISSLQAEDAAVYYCQQCHRLPLSFGGGTKVEIK,4.88,1/3,1/9
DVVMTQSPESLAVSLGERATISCKSSQWVLYESRNKNSMAWYQQKAGQPPKLLIYWASTRNSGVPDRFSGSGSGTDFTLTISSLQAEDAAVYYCQQYHRLPLSFGGGTKVEIK,3.15,3/3,4/9
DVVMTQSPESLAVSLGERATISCKSSQSKLYESRYKNSVAWYQQKAGQPPKLLIYWASTRESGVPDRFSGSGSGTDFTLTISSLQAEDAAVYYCQQYHRLTLSFGGGTKVEIK,1.01,3/3,0/9
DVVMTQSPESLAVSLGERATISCKSSQSVLYESRNWNSVAWYQQKAGQPPKLLIYLASTREFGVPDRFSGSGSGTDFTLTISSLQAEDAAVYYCQQYHRLPLSFGGGTKVEIK,3.57,3/3,7/9
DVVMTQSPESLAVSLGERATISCKSSQSVLYESRNKKSVAWYQQKAGQPPKLLIYWASTRESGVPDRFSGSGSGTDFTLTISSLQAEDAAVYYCQTYHRLPLSFGGGTKVEIK,3.59,2/3,3/9
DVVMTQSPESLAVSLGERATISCKLDQSVLHESRNKNSVAWYQQKAGQPPKLLIYWASTRESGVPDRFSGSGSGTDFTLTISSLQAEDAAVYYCQQYHRLPLSFGGGTKVEIK,0.06,3/3,5/9
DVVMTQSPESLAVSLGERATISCKSLQKVLYESREKNSVAWYQQKAGQPPKLLIYWASTRESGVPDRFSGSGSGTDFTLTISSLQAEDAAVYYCQQYHRLPLSFGGGTKVEIK,2.50,3/3,2/9
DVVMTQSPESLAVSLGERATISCKSSQSVLYESRNKNSVAWYQQKAGQPPKLLIYWAHTRESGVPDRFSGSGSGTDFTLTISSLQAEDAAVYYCQGYRRLPLSFGGGTKVEIK,1.62,3/3,6/9
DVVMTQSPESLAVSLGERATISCKSSQSVLYLSRNKNWVAWYQQKAGQPPKLLIYWHSTRESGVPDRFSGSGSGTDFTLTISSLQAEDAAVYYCQQYHRLPLSFGGGTKVEIK,not detected,0/3,0/9
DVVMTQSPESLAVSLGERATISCKSSESVLYESRNKMSVAWYQQKAGQPPKLLIYWYSTRESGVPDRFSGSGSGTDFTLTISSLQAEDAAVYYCQQYHRLPLSFGGGTKVEIK,3.56,2/3,2/9
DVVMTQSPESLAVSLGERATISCKSSQSVLYESRNKGSVHWYQQKAGQPPKLLIYWASTRESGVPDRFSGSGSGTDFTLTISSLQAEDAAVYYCQQYHRLPLSFGGGTKVEIK,4.88,2/3,7/9
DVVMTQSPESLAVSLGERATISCASSQSVLYESRNKNSVAWYQQKAGQPPKLLIYWASARESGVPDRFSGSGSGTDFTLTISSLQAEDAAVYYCQQYHRLYLSFGGGTKVEIK,not detected,0/3,1/9
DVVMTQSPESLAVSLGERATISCKSSQSCLYESRNKNSVAWYQQKAGQPPKLLIYWASTRESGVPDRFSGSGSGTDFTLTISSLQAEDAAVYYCQQYGRLILSFGGGTKVEIK,5.35,2/3,4/9
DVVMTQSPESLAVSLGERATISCKSSQSVLYESRTKNSVAWYQQKAGQPPKLLIYWASTREFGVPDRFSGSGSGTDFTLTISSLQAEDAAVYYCQQYHRLPLSFGGGTKVEIK,1.16,3/3,0/9
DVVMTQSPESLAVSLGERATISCKSSQSVMYESRIKNSVAWYQQKAGQPPKLLIYWASTKESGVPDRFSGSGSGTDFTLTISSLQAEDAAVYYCQQYHRLPLSFGGGTKVEIK,2.15,3/3,1/9
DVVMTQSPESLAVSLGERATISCKSSQSKLYESRNKMSVAWYQQKAGQPPKLLIYWASTRESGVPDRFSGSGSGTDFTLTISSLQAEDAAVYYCQQYHRLHLSFGGGTKVEIK,2.26,3/3,0/9
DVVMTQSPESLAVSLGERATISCKSSVSVLYESRNKNSVAWYQQKAGQPPKLLIYWHSTRESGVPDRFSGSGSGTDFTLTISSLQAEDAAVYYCQQYHDLPLSFGGGTKVEIK,4.25,2/3,2/9
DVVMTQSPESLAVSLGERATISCKRSQSVLYESNNKNSVAWYQQKAGQPPKLLIYWASVRESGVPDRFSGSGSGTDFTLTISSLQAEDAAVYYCQQYHRLPLSFGGGTKVEIK,2.71,3/3,1/9
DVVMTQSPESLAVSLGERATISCKSSQSVLYESRNKESVAWYQQKAGQPPKLLIYWKLTRESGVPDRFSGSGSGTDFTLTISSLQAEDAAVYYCQQYHRLPLSFGGGTKVEIK,4.50,1/3,1/9
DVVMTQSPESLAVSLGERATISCKSSRSFCYESRNKNSVAWYQQKAGQPPKLLIYWASTRESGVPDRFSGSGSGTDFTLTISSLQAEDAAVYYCQQYHRLPLSFGGGTKVEIK,1.29,3/3,0/9
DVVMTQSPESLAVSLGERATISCKSSQSVLYKSRNKNSVAWYQQKAGQPPKLLIYWASTRMSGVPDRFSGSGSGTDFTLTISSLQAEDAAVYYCQQCHRLPLSFGGGTKVEIK,3.51,1/3,4/9
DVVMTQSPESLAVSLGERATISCKSSQSVLYLSRNKNSVAWYQQKAGQPPKLLIYWASTIERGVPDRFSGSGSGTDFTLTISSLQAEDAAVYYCQQYHRLPLSFGGGTKVEIK,not detected,0/3,0/9
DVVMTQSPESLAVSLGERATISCKSSQSVLYESRNKVSVAWYQQKAGQPPKLLIYWASTRHSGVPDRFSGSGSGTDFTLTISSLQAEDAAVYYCQQYHVLPLSFGGGTKVEIK,4.67,3/3,6/9
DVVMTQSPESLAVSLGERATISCKSSQSVLTESRNKNSVAWYQQKAGQPPKLLIYWWSTNESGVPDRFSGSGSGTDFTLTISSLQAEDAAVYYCQQYHRLPLSFGGGTKVEIK,not detected,0/3,0/9
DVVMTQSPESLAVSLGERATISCKSSQAVLYESRNKNSPAWYQQKAGQPPKLLIYWASTRESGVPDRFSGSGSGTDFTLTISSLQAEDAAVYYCQQYHRLWLSFGGGTKVEIK,not detected,0/3,0/9

Repeated from above, the 4 best binders with a signal in all replicates:

| VL | mean, log10 nM | seen in | signal with controls |
|---|---|---|---|
| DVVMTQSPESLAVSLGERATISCKLDQSVLHESRNKNSVAWYQQKAGQPPKLLIYWASTRESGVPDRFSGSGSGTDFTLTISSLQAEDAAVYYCQQYHRLPLSFGGGTKVEIK | 0.06 | 3/3 | 5/9 |
| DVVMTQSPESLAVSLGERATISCKSSQSKLYESRYKNSVAWYQQKAGQPPKLLIYWASTRESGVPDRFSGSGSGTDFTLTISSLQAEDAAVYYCQQYHRLTLSFGGGTKVEIK | 1.01 | 3/3 | 0/9 |
| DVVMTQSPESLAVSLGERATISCKSSQSVLYESRTKNSVAWYQQKAGQPPKLLIYWASTREFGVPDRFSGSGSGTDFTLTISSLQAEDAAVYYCQQYHRLPLSFGGGTKVEIK | 1.16 | 3/3 | 0/9 |
| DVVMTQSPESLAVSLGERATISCKSSRSFCYESRNKNSVAWYQQKAGQPPKLLIYWASTRESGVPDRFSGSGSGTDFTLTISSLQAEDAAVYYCQQYHRLPLSFGGGTKVEIK | 1.29 | 3/3 | 0/9 |

As a blank, each scFv also met three strains without target: over library AAYL50, 18% of these pairings were detected, typically at 4.19 and seldom below 2.99. Also given: how often the same scFv was detected with the empty control strains.

Source: Engelhart et al. 2022 (doi:10.1038/s41597-022-01779-4), MIT Lincoln Laboratory and A-Alpha Bio; data file from the FLAb repository.